Here are results for 1 molecule from patent publication US8921563B2, “1-[(4-hydroxypiperidin-4-yl)methyl]pyridin-2(1H)-one derivatives, preparation methods and uses thereof” (Institue of Pharmacology and Toxicology Academy of Military …, priority 2010, dated 2014).

Amino acid sequences for entries named in this document (tags omitted).
UniProt P19327, whole entry: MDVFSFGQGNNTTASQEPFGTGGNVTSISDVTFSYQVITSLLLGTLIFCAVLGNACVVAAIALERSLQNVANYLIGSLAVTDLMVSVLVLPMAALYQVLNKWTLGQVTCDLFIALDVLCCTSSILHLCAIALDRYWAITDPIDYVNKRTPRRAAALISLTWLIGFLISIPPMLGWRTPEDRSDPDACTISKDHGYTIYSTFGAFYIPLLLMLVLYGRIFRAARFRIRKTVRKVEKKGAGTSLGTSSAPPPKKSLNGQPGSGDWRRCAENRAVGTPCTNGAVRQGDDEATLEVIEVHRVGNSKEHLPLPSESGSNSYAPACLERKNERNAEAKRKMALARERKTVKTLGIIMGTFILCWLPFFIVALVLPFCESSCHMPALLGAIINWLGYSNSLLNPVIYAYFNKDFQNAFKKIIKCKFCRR

In the experiment the target is T1, 5-HT1A receptor (Rattus norvegicus, UniProt P19327).
T1 construct: the content of 5-HT1A receptor extracted from rat hippocampi was 5.5 mg/ml; from tissue; host or cells: Wistar rat hippocampus, membrane preparation
Briefly: Screening: competitive binding test to 5-HT1A receptor using [3H]-8-OH-DPAT, rat hippocampi membrane protein. The note with it: [3H]-8-OH-DPAT 1.28 nM. How it is done:
1.4.1 Screening of YL Series Compounds
(1) Preparation of Membrane Proteins in Rat Hippocampi
Wister rats, 220-260 g, female and male, were sacrificed by decapitation and hippocampis were rapidly separated, weighed and to which homogenized in 10 times volume of Tris-HCl buffer solution (50 mM Tris-HCl, 5 mM MgCl2,1 mM EDTA, 0.5% (WN) BSA, 1 mM PMSF, 3 μg/ml proteinase inhibitor, 0.1% NaN3, 0.32M sucrose, pH 7.4) at 15,000 rpm for 30 s, total 5 times. The homogenate was centrifuged under 1000×g for 10 minutes and the supernatant was then centrifuged under 39000×g for 10 minutes. The precipitate was collected, and resuspended with 10 times volume of Tris-HCl buffer solution (pH 7.4) relative to the original weight, then centrifuged under 39000×g for 10 minutes. The precipitate was washed with the same buffer solution, centrifuged under 39000×g for 10 minutes and the precipitate was suspended with the above buffer solution. […] The protein concentration was measured by Lowrry method. […]
8) Then samples were applied to 49-type glass fibre filter, vacuum suction filtered, then washed three times with 2 ml ice-cold Tris-HCl buffer solution (50 mM Tris-HCl buffer solution, 1 mM EDTA, 5 mM MgCl2, 1 mM PMSF, 0.1% NaN3, 3 μg/ml proteinase inhibitor, pH 7.4). […] The radio-activity was measured by a scintillation counter.

Turning to `CCCN(CCC)C1CCc2cccc(O)c2C1` (centres unmarked) [Compound 8-OH-DPAT, 8-OH-DPAT, reference compound], the “Inhibition percent (I %), competitive binding to 5-HT1A receptor” value is, setting by setting: (compound 10^-5 mol/L) 100%; (compound 10^-7 mol/L) 85%.
